Reference: article PMC3078584
Where two headings read alike, the source gives them in different places.

T1: Labeled ZAP70 peptide 1, Flu-βA-TLNSDGpYTPEPA-CONH2
T1 chain: TLNSDGYTPEPA

B1: His-Cbl(TKB) (domain or fragment)
chain: MAGNVKKSSGAGGGSGSGGSGSGGLIGLMKDAFQPHHHHHHHLSPHPPGTVDKKMVEKCWKLMDKVVRLCQNPKLALKNSPPYILDLLPDTYQHLRTILSRYEGKMETLGENEYFRVFMENLMKKTKQTISLFKEGKERMYEENSQPRRNLTKLSLIFSHMLAELKGIFPSGLFQGDTFRITKADAAEFWRKAFGEKTIVPWKSFRQALHEVHPISSGLEAMALKSTIDLTCNDYISVFEFDIFTRLFQPWSSLLRNWNSLAVTHPGYMAFLTYDEVKARLQKFIHKPGSYIFRLSCTRLGQWAIGYVTADGNILQTIPHNKPLFQALIDGFREGFYLFPDGRNQNPDLTGLCEPTP
modifications: not checked
B2: GST-Cbl(TKB) (domain or fragment)
chain: B1 chain
modifications: not checked

How the values were obtained:
Assay in all cases: fluorescence polarisation
[1] = target: T1, Labeled ZAP70 peptide 1, …
[2] = target: T1, Labeled ZAP70 peptide 1, …
[3] = target: T1, Labeled ZAP70 peptide 1, …
[4] = target: T1, Labeled ZAP70 peptide 1, …
[5] = target: T1, Labeled ZAP70 peptide 1, …

Row | Binder | Kd [1] [nM] | Kd [2] [nM] | Kd [3] [nM] | Kd [4] [nM] | Kd [5] [nM]
1 | B1 | 410 | 460 | 520 | 470 | 540
2 | B2 | – | – | – | 1200 | –
